Among the data in US11466042B2, “Method for producing ferric citrate hydrate” (Tokuyama Corporation, priority 2017, dated 2022) are Specific surface area and aconitic acid increases values, retold here.

Values joined by “and” are separate entries in the source; they are usually repeats but may differ in a detail not shown here. Equal entries are not always repeated.

For the first data set the following is noted: BET method, nitrogen adsorption; dried solid; citrate hydrate.
With ferric citrate hydrate [Example 10], the Specific surface area was 17.2 m^2/g.
The substance “ferric citrate hydrate [Comparative example 1, reference compound]” displayed a Specific surface area of 36.6 m^2/g.
The same measure, in the same setting: to ferric citrate hydrate [Example 30] belongs 60.3 m^2/g; to ferric citrate hydrate [Example 14], 35.1 m^2/g; to ferric citrate hydrate [Example 23], 91.4 m^2/g.
Still for that read-out and setting: to ferric citrate hydrate [Example 6] belongs 50.6 m^2/g.
ferric citrate hydrate [Example 4] yielded a Specific surface area of 108.9 m^2/g.
Still for that read-out and setting: the figure for ferric citrate hydrate [Example 32] is 20.2 m^2/g.
Substance ferric citrate hydrate [Example 42] had a Specific surface area of 79.8 m^2/g.
Still for that read-out and setting: the figure for ferric citrate hydrate [Example 17] is 27.8 m^2/g.
In turn, ferric citrate hydrate [Example 21] gave a Specific surface area of 50.9 m^2/g.
Still for that read-out and setting: the figure for ferric citrate hydrate [Example 15] is 31.7 m^2/g; for ferric citrate hydrate [Example 19] it is 54.4 m^2/g; for ferric citrate hydrate [Example 31] it is 13.2 m^2/g.
For the substance ferric citrate hydrate [Example 1], the Specific surface area turned out to be 84.4 m^2/g.
ferric citrate hydrate [Example 36] yielded a Specific surface area of 128.9 m^2/g.
The substance ferric citrate hydrate [Example 8] returned a Specific surface area of 39.2 m^2/g.
With ferric citrate hydrate [Example 28], the Specific surface area is 91.0 m^2/g.
The same measure, in the same setting: to ferric citrate hydrate [Example 41] belongs 76.3 m^2/g; to ferric citrate hydrate [Example 18], 135.4 m^2/g; to ferric citrate hydrate [Example 38], 19.4 m^2/g.
As for ferric citrate hydrate [Example 12], the Specific surface area stood at 51.6 m^2/g.
The substance ferric citrate hydrate [Example 22] gave a Specific surface area of 72.5 m^2/g.
In turn, ferric citrate hydrate [Example 27] gave a Specific surface area of 75.7 m^2/g.
ferric citrate hydrate [Example 29] registered a Specific surface area of 91.2 m^2/g.
The substance ferric citrate hydrate [Example 3] yielded a Specific surface area of 125.2 m^2/g.
For the substance ferric citrate hydrate [Example 2], the Specific surface area was determined as 71.2 m^2/g.
Turning to ferric citrate hydrate [Example 33], the Specific surface area is reported as 86.3 m^2/g.
As to ferric citrate hydrate [Example 16], the Specific surface area was 27.1 m^2/g.
Same read-out and setting: to ferric citrate hydrate [Example 13] belongs 45.6 m^2/g; to ferric citrate hydrate [Example 7], 47.5 m^2/g; to ferric citrate hydrate [Example 35], 72.1 m^2/g.
In turn, ferric citrate hydrate [Example 39] returned a Specific surface area of 58.4 m^2/g.
“ferric citrate hydrate [Ferric citrate as material]”: the Specific surface area is given as 30.0 m^2/g.
Same read-out and setting: the figure for ferric citrate hydrate [Example 34] is 88.9 m^2/g.
For the substance ferric citrate hydrate [Example 20], the Specific surface area amounted to 122.4 m^2/g.
On the same count and under the same terms, the figure for ferric citrate hydrate [Example 9] is 22.9 m^2/g; for ferric citrate hydrate [Example 37] it is 140.5 m^2/g.
Take ferric citrate hydrate [Example 5]: the Specific surface area is 82.2 m^2/g.
As to ferric citrate hydrate [Example 24], the Specific surface area was found to be 89.5 m^2/g.
Substance ferric citrate hydrate [Example 11] returned a Specific surface area of 88.8 m^2/g.
Substance ferric citrate hydrate [Example 26] gave a Specific surface area of 65.3 m^2/g.
Regarding ferric citrate hydrate [Example 40], the Specific surface area is 68.3 m^2/g.
As to ferric citrate hydrate [Example 25], the Specific surface area is 84.6 m^2/g and 91.5 m^2/g.

Still in this data set, the particulars now being: BET method, nitrogen adsorption; dried solid; listed as ferric citrate as the material, citrate hydrate.
The substance “ferric citrate hydrate [Ferric citrate as material]” displayed a Specific surface area of 30.0 m^2/g.

The conditions of a further data set: dissolving temperature 55° C., 30 minutes.
With “ferric citrate hydrate [Ferric citrate as material]”, the aconitic acid increases entry is “about 0.1%”.

The same data set, now with this note: dissolving temperature 55° C., 1 hour.
Substance “ferric citrate hydrate [Ferric citrate as material]” gave an aconitic acid increases of roughly 0.3%.

The same data set, now with this note: dissolving temperature 55° C., 2 hours.
Take “ferric citrate hydrate [Ferric citrate as material]”: the aconitic acid increases is given as roughly 0.5%.

The data set is the same for the next values; noted with them: dissolving temperature 80° C., 30 minutes.
On to “ferric citrate hydrate [Ferric citrate as material]”, for which the aconitic acid increases entry is “about 1.5%”.

The same data set, now with this note: dissolving temperature 80° C., 1 hour.
In the case of “ferric citrate hydrate [Ferric citrate as material]”, the aconitic acid increases is on record as roughly 4.0%.

The data set is the same for the next values; noted with them: dissolving temperature 80° C., 2 hours.
Consider “ferric citrate hydrate [Ferric citrate as material]”, for which the aconitic acid increases is roughly 8.5%.
